Data as given in US20090227607A1, “DEAZAPURINES USEFUL AS INHIBITORS OF JANUS KINASES” (priority 2006, published 2009).

Chains of the proteins cited; added tags and fusions are not shown.
UniProt O60674, whole entry: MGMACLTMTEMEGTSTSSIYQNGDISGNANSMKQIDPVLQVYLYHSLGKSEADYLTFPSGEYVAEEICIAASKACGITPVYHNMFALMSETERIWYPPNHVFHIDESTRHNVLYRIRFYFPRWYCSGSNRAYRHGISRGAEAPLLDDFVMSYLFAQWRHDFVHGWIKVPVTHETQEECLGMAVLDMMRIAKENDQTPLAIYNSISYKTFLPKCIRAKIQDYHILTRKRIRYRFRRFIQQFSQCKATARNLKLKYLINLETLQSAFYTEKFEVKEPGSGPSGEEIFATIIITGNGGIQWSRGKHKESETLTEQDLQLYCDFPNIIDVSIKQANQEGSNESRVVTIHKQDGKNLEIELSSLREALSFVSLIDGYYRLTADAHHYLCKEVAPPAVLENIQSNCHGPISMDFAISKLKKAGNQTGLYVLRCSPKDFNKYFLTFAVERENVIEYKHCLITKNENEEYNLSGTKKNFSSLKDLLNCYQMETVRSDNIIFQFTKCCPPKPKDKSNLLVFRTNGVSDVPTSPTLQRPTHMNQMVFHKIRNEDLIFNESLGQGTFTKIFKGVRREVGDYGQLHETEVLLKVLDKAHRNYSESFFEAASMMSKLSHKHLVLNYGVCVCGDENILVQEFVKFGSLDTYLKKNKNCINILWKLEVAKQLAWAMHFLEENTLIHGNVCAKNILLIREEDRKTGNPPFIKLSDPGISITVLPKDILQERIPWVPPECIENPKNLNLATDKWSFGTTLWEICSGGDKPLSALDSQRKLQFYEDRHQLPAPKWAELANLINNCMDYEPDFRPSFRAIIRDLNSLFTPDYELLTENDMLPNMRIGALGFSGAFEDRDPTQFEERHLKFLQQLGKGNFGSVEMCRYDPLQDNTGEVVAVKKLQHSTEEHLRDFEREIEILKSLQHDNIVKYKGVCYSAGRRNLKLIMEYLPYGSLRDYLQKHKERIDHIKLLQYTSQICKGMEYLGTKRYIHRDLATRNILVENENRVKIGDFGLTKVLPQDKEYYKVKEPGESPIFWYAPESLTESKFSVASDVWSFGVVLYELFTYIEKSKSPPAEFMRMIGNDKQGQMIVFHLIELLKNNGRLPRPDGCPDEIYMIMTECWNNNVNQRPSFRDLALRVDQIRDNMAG
UniProt P52333, whole entry: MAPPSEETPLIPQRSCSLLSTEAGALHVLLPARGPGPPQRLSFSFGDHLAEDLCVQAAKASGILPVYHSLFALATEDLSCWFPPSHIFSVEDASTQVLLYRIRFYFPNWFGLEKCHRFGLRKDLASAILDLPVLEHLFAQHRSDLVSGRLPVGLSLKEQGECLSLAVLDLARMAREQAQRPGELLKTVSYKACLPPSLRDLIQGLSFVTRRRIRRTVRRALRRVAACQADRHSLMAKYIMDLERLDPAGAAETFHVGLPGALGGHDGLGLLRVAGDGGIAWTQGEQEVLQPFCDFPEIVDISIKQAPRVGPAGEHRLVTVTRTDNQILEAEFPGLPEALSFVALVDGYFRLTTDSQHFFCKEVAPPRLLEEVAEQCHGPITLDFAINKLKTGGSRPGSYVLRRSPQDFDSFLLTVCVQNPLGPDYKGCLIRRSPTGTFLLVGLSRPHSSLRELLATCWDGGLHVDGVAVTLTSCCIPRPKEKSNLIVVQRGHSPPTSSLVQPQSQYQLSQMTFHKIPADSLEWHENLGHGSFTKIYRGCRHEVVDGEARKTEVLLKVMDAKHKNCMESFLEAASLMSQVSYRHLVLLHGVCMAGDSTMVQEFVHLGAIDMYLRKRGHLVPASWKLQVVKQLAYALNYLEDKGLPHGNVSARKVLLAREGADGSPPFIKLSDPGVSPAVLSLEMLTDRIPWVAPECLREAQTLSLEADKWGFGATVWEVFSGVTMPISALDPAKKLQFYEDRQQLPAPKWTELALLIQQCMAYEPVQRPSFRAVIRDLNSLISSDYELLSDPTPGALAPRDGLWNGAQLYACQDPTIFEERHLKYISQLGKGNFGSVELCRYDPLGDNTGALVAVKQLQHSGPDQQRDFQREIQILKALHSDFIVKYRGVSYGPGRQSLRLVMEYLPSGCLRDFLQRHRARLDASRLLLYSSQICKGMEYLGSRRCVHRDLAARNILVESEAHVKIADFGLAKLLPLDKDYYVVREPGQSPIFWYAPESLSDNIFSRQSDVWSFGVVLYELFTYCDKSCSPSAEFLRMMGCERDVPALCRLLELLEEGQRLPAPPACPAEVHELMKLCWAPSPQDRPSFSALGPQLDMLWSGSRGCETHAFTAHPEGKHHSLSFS

Tests used:
JAK-2 enzyme = JAK-2 enzyme (Homo sapiens, UniProt O60674); experiment: JAK2 Inhibition Assay; details: read-out: JAK2 enzyme inhibition data (Ki); 15 μM poly(Glu)4Tyr, 12 μM ATP, 25° C.
JAK3 = JAK3 (Homo sapiens, UniProt P52333); experiment: JAK3 Inhibition Assay; details: read-out: JAK3 enzyme inhibition data (Ki); 1 μM poly(Glu)4Tyr, 5 μM ATP, 1 nM JAK3, 25° C.

- Ki (JAK-2 enzyme): < 100 nM
- Ki (JAK3): 100 to 500 nM
SMILES: COC(=O)C1CCCCC1C(=O)Nc1nc(-c2ccnc3[nH]ccc23)cs1 (single isomer, unassigned)
